High-throughput results (PubChem BioAssay)
Hits are enriched below; roughly 3.6% of the tested compounds scored in any of these assays.
PI5P4K alpha inh: blocks human PI5P4K alpha kinase activity; P48426; PI5P4Kalpha enzyme, ADP-Glo luminescence, 60 min; hits give low values; max response, %; 1.2% of 330,000 active; AID 652105; active means max response of -50% or lower; inconclusive means between -30% and -50%; inactive means -30% or higher; further: value at the top dose of about 77 µM
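Enzyme plus substrate dispensed, test compounds pinned in, then ATP (5 microM final) added. After 60 min at RT, ADP-Glo reagent 1 for 45 min and reagent 2 for 30 min preceded luminescence imaging.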
Rango release inh: prevents RanGTP from dissociating the Rango-importin beta complex. O95149+P62826. Biochemical FRET Rango-importin beta, RanGTP-induced dissociation. Potency, µM (top dose mostly 46.1 µM). 0.071% of 340,000 active. AID 540253; calls by dose curve; further: nearly all actives have a fitted effect of over 45% in size
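Compounds preincubate 5 min with complex of recombinant Rango and importin beta in PBS with 1 mM DTT. Ran (0.6 uM) loaded with 2 mM GTP plus 0.2 uM RCC1 starts dissociation; FRET is recorded 45 min later.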
KAT2A inh: inhibitors of human GCN5L2 histone acetyltransferase | Q92830 | 0.21% of 390,000 active | GCN5L2 HAT assay, ThioGlo1 CoA-SH fluorescence | Potency, µM (highest dose often 58.9 µM), usual class: inhibitors | AID 504327
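ThioGlo1-coupled HAT assay: 20nM GCN5L2, 70uM acetyl-CoA, 75uM H3(1-25) peptide, pH 7.5. Fluorescence read at 340/540nm at start and after 20 min at room temperature.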
PLK1 PBD inh: blocks phosphopeptide binding to human PLK1 polo-box domain; 2.8% of 360,000 active; Potency, µM, hits mostly inhibitors; Plk1 PBD binding of FITC phosphopeptide, fluorescence polarization; P53350; further: series mostly up to about 57 µM; nearly all actives have a fitted effect of over 65% in size
Rango-impB inh: Rango-importin beta binding inhibition; Q14974; Rango CFP/YFP FRET sensor + importin beta, 45 min; Potency, µM (top dose mostly 92.2 µM); 0.031% of 340,000 active; AID 540263; calls by dose curve; further: nearly all actives have a fitted effect of over 15% in size
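Inhibition scored from the CFP 486 nm/YFP 530 nm FRET ratio 45 min after adding 0.125 microM importin beta to 50 nM Rango biosensor preincubated 5 min with compound (room temperature, PBS with DTT, Tween-20, BSA). No-importin wells as positive control.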
VDR inh: inhibitors of human vitamin D receptor | P11473 | VDR-SRC2-3 peptide fluorescence polarization, 2 h | Potency, µM, actives largely listed as inhibitors | 0.93% of 400,000 active | AID 504847
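VDR–SRC2-3 interaction, FP format. Cmpds 23 nl via pintool, brief spin, 2 h ambient incubation.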
Each line names hits and unclear results; the compound was inactive in the other large screens. Unless noted, the call rests on the fitted dose curve; in most records, active means well fitted curve in the direction sought with a large enough effect; inconclusive means small, poorly fitted or top-dose-only effect, or another doubt; inactive means no such curve, though single readings can be large; an effect the other way counts as inactive or inconclusive.

CC(C)C[C@H](NC(=O)[C@H](CC(C)C)NC(=O)[C@@H](Cc1c[nH]c2ccccc12)NC(=O)[C@H](Cc1ccccc1)NC(=O)[C@@H](Cc1c[nH]c2ccccc12)NC(=O)[C@H](CCC(N)=O)NC(=O)[C@H](CCC(N)=O)NC(=O)[C@@H]1CCCN1C(=O)[C@H](CCCCN)NC(=O)[C@@H]1CCCN1C(=O)[C@H](N)CCCN=C(N)N)C(N)=O	none (no result: PI5P4K alpha inh, Rango release inh, PLK1 PBD inh, Rango-impB inh)
O=C(COC(=O)COc1cccc(F)c1)Nc1nc2ccccc2s1	none
O=C(COc1cccc(F)c1)Nc1nc(-c2ccccn2)cs1	PI5P4K alpha inh inconclusive, PLK1 PBD inh 10.6µM (no result: Rango release inh, KAT2A inh, Rango-impB inh, VDR inh)
O=C(Nc1nc(-c2ccccn2)cs1)Nc1ccc(F)cc1F	PLK1 PBD inh 4.74µM, VDR inh inconclusive
CCOc1ccc(-c2nnc(-c3cccs3)o2)cc1OCC	PLK1 PBD inh 18.9µM
CCN(CC)c1ccc2nc3c4ccccc4c(=O)cc-3oc2c1	VDR inh inconclusive
CCN(CC)c1ccc2c(-c3ccc(S(=O)(=O)O)cc3S(=O)(=O)[O-])c3ccc(=[N+](CC)CC)cc-3oc2c1	PI5P4K alpha inh -51.3, Rango release inh inconclusive, KAT2A inh inconclusive, PLK1 PBD inh 6.7µM, Rango-impB inh inconclusive, VDR inh 39.8µM
Cc1cc([N+](=O)[O-])nn1CC(=O)Nc1cccc2nonc12	PI5P4K alpha inh -73.4
CCOC(=O)c1cnc2c(Cl)cc(Cl)cc2c1NCCCN1CCOCC1	KAT2A inh inconclusive, PLK1 PBD inh 13.4µM, Rango-impB inh inconclusive
O=C(c1cc(F)cc(F)c1)N1CCC(c2nc(-c3ccc(S(=O)(=O)N4CCCC4)cc3)no2)CC1	none (no result: PI5P4K alpha inh, Rango release inh, PLK1 PBD inh, Rango-impB inh)
Cc1ccc(S(=O)(=O)NNC(=O)c2ccccc2O)cc1	none
Cc1ccc(S(=O)(=O)NNC(=O)c2csnn2)cc1	Rango release inh inconclusive, Rango-impB inh 51.7µM
CCCCCCCCCCCCC/C=C/[C@@H](O)[C@H](CO)NC(=O)CCCCC	none (no result: PI5P4K alpha inh, Rango release inh, PLK1 PBD inh, Rango-impB inh)
COc1ccc(CCNC(=O)CCNC(=O)N2CC(=O)Nc3ccccc32)cc1	PLK1 PBD inh 21.2µM
CN(C(=S)NC(=O)c1ccc(Cl)cc1)C1CCCCC1	PI5P4K alpha inh -97.9, PLK1 PBD inh 21.2µM
CCN(CC)C(=S)SSC(=S)N(CC)CC	PI5P4K alpha inh -77.5, KAT2A inh inconclusive, PLK1 PBD inh 0.844µM (no result: VDR inh)
Cc1ccc(N(C)C(=O)Cn2nc(Cc3ccncc3)c3ccccc3c2=O)cc1C	none (no result: PI5P4K alpha inh, Rango release inh, PLK1 PBD inh, Rango-impB inh)
O=C(O)c1cccc(Nc2ccncc2[N+](=O)[O-])c1	PI5P4K alpha inh inconclusive, PLK1 PBD inh 23.8µM, VDR inh inconclusive
O=C(O)c1ccc(NCCc2ccc(Cl)cc2)c([N+](=O)[O-])c1	PI5P4K alpha inh -56.2
O=C(O)c1ccc(Nc2ccc(Cl)c(Cl)c2)c([N+](=O)[O-])c1	PI5P4K alpha inh -52.3
O=[N+]([O-])c1cnccc1Nc1ccccc1	PLK1 PBD inh 26.7µM, VDR inh inconclusive
O=[N+]([O-])c1cnccc1Nc1ccc(F)cc1	none
CCOc1ccccc1CNC(=O)Cn1nc(C)c2nn(-c3ccc(Cl)cc3)c(C)c2c1=O	none (no result: PI5P4K alpha inh, Rango release inh, PLK1 PBD inh, Rango-impB inh)
COc1cccc(CNC(=O)c2cc3c(=O)n(Cc4cccnc4)ccc3nc2C)c1	none (no result: PI5P4K alpha inh, Rango release inh, PLK1 PBD inh, Rango-impB inh)
O=C(/C=C/c1cccc(OCc2ccccc2)c1)c1cccnc1	VDR inh 39.8µM
CCOC(=O)Nc1cc2c(c(N)n1)N=C(c1ccccc1)CN2	PI5P4K alpha inh -67.8, Rango release inh inconclusive, Rango-impB inh inconclusive (no result: KAT2A inh)
CCOC(=O)Nc1sc(C)nc1-c1ccccc1	none (no result: PI5P4K alpha inh)
Cc1ccccc1C(=O)Nc1cccc(OCc2cc(=O)n3c4c(sc3n2)CCCC4)c1	none (no result: PI5P4K alpha inh, Rango release inh, PLK1 PBD inh, Rango-impB inh)
CS(=O)(=O)c1nsc2nc(=O)c(/C=C3\C=Nc4ccccc43)c(N)n12	PI5P4K alpha inh -71.9, Rango release inh inconclusive, Rango-impB inh inconclusive
CC(C)Sc1nsc2nc(=O)c(/C=C3\C=Nc4ccccc43)c(N)n12	PI5P4K alpha inh inconclusive, Rango release inh inconclusive, PLK1 PBD inh 26.7µM, Rango-impB inh inconclusive
CC(C)c1nn2c(N)c(/C=C3\C=Nc4ccccc43)c(=O)nc2s1	Rango release inh inconclusive, Rango-impB inh inconclusive
COc1ccc(C)cc1NC1(c2ccccc2)C(=O)c2ccccc2C1=O	none (no result: PI5P4K alpha inh, Rango release inh, PLK1 PBD inh, Rango-impB inh)
O.O.[Mn].[Mn].[Mn].[OH-].[OH-]	none (no result: PI5P4K alpha inh, Rango release inh, PLK1 PBD inh, Rango-impB inh, VDR inh)
